Reference: patent publication US5045530A, “Pharmaceutical preparations” (priority 1986, dated 1991)

Settings: micellarly included

HgCl2
reduction of toxicity by inclusion in N-tensides: up to 80%
